Source: ChEMBL document CHEMBL1146612, “Identification of a dual histamine H1/H3 receptor ligand based on the H1 antagonist chlorpheniramine” (Bioorg Med Chem Lett, 2003)

Amino acid sequences for entries named in this document (tags omitted).
UniProt P31390, whole entry: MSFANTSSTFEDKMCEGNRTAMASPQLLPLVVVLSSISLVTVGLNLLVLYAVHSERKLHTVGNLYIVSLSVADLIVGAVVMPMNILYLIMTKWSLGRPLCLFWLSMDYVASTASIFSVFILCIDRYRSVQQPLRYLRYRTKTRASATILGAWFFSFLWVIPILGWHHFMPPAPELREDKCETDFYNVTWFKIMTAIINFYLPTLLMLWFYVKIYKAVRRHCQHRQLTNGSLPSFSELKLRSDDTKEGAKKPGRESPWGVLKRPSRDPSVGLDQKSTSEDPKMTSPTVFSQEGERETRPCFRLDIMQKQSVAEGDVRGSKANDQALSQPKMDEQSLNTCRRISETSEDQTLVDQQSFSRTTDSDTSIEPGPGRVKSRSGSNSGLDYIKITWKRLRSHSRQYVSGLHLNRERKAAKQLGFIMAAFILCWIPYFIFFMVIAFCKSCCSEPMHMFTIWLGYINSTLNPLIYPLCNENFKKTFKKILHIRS

Molecular target: Histamine H1 receptor (Rattus norvegicus, UniProt P31390)
Test: Ability to displace [3H]pyrilamine from histamine H1 receptor in male Sprague-Dawley rat brain membranes
Type: tissue-based, Membrane

- Ki: 2 nM
SMILES: CN(C)CCC(c1ccc(Cl)cc1)c1ccccn1 (stereo unspecified) [CHLORPHENIRAMINE]
